# Binding of CDR-mutated scFvs to a peptide of the spike HR2 region

From the AlphaSeq antibody data of Engelhart et al. 2022 (doi:10.1038/s41597-022-01779-4), copy in the FLAb collection.

Target: peptide PDVDLGDISGINAS, taken from heptad repeat 2 (HR2) of SARS-CoV-2 spike.

Parent scFv Ab-95: VH joined to VL by a 15-residue (Gly4Ser)3 linker. Changes lie in the light chain CDRs alone.
VH: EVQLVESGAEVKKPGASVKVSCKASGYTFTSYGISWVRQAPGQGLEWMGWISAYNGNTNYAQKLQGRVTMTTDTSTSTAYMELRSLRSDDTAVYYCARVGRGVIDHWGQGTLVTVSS
VL: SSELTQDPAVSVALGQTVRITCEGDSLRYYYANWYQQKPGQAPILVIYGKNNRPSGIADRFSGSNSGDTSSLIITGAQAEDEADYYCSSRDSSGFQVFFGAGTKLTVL

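Library AAYL52 holds single substitutions and randomly drawn double and triple substitutions in the CDRs. The scFvs were displayed on barcoded MATa yeast, the peptide on MATalpha yeast. Binding brings cells together so that they mate, and sequencing counts the barcode pairs among the diploids. Scores were corrected for input abundance and mapped to Kd with protein pairs of known affinity run in the same pool. Mating was done three times.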

Each variant is given by its three light chain CDRs, as the data file delimits them; those of the parent are EGDSLRYYYAN, GKNNRPS, SSRDSSGFQVF. Each Kd is an estimate from the mating assay, the geometric mean of the replicates in which the pair was seen; lower is stronger. A pair that was not seen in any replicate is written "not detected"; this usually means weak binding, but a binder can also be missed.

CDR-L1	CDR-L2	CDR-L3	Kd	seen in	signal with controls
EGDSLRYYYAN	GWNNRPS	WSRDSSGFQVV	87 µM	2 of 3	4 of 9
EGDSLRYYYAN	GKNNRRT	SSRDSSGFQVK	13 µM	2 of 3	4 of 9
EGDHLRYEYAN	GKNNRPS	SSYDSSGFQVF	28 µM	1 of 3	0 of 9
EGDRLRYYYAV	GKNNRPF	SSRDSSGFQVF	1.8 µM	1 of 3	0 of 9
EGDPLWYYYAE	GKNNRPS	SSRDSSGFQVF	1.6 µM	1 of 3	1 of 9
EGRSLRYYMPN	GKNNRPS	SSRDSSGFQVF	53 nM	3 of 3	2 of 9
EGDSHRYYYAL	GKHNRPS	SSRDSSGFQVF	48 µM	2 of 3	3 of 9
EGDSLRYYYAN	GDNNRPS	SNRDSSGFQVF	660 nM	3 of 3	1 of 9
EADCLRYYYAN	GKNNRPS	SSRDSSGFMVF	39 µM	2 of 3	3 of 9
EGDSSRYYYAN	KKNNDPS	SSRDSSGFQVF	6.7 µM	3 of 3	2 of 9
EGDSLRYYYAN	GKNPRSS	SSRDSSGFQWF	310 µM	2 of 3	3 of 9
EGDSLRYYYAN	SENNLPS	SSRDSSGFQVF	2.4 µM	2 of 3	4 of 9
EGDILRYYYAN	GKNIRPS	SIRDSSGFQVF	not detected	0 of 3	0 of 9
EGDSLRYYYPN	GKNNRPS	SSRDSSGFQQA	540 nM	3 of 3	4 of 9
EGDSLRYCYAN	GKNNRPS	ASRDSSGFQKF	6.8 µM	3 of 3	2 of 9
EGDSLRYYYAD	GKNNRPS	WSRDSHGFQVF	3.8 µM	2 of 3	2 of 9
QGDSLRYYYAN	GKNNRPS	SSEDSSGFRVF	6.1 µM	2 of 3	1 of 9
EGDSLRYYDAN	GTNNPPS	SSRDSSGFQVF	17 µM	3 of 3	2 of 9
EGDSLRYMYAN	GNNNRPS	SSRDSSGFRVF	2.0 µM	2 of 3	2 of 9
EGDSLRYYYAA	GHNNRRS	SSRDSSGFQVF	not detected	0 of 3	2 of 9
EGDSLRYYYAN	GKNPRPS	SSRDSCGCQVF	18 µM	1 of 3	4 of 9
EGDSQRYYYAN	GKNNRPS	SSRVSSGFQVC	1.8 µM	3 of 3	1 of 9
EGPSLRYYYAN	GKNNRNS	SSRDSSGFQPF	not detected	0 of 3	1 of 9
EGDSDRYYYAN	GKNNRPS	ASRDSSGFQVA	not detected	0 of 3	0 of 9
EGDQLRYTYAN	GINNRPS	SSRDSSGFQVF	380 nM	3 of 3	1 of 9
EGDSLRYYYAN	GKNYRPQ	SSRDSSGFQVK	5.4 µM	2 of 3	3 of 9
EGDSLRYYFAH	GKNNRPS	SSRDSSGFVVF	21 µM	1 of 3	5 of 9
EGLSLRYYKAN	GKNNRPS	SSVDSSGFQVF	910 nM	1 of 3	4 of 9
EGDSLRYYYAD	GKNNRPS	SSRDSTGFCVF	2.5 µM	1 of 3	2 of 9
EGDSLRYYYFN	GANNRPD	SSRDSSGFQVF	not detected	0 of 3	1 of 9
EGDSLRYYYAN	GKNNRPS	SSRDSSGISCF	1.4 µM	3 of 3	6 of 9
PGDSLRYYYAV	GKNNRPS	SSRDSSGCQVF	2.5 µM	2 of 3	0 of 9
EGDSLRIYYAN	GKNLRPS	SSRDSSGFQVF	11 µM	2 of 3	3 of 9
EGDSLRYYYAN	GNNNVLS	SSRDSSGFQVF	860 nM	3 of 3	1 of 9
EGDSYRYYYAN	GNNNKPS	SSRDSSGFQVF	2.9 µM	1 of 3	4 of 9
MWDSLRYYYAN	GSNNRPS	SSRDSSGFQVF	210 nM	3 of 3	1 of 9
EGDSLRYYPAH	GKNNEPS	SSRDSSGFQVF	1.6 µM	3 of 3	6 of 9
EIDSLRYYYAN	GKNNRPS	SSRDKSGFQSF	not detected	0 of 3	1 of 9
EGDSLRYYAAN	GKGNRPS	MSRDSSGFQVF	4.9 nM	3 of 3	2 of 9
EGRSLRYYYAN	GVNNRPS	SSRDSSGFQVF	1.8 µM	3 of 3	2 of 9
EGCSLRRYYAP	GKNNRPS	SSRDSSGFQVF	80 nM	3 of 3	6 of 9
EGDSLRYYYAN	GKNNRGS	SPRDSSGFQVF	370 nM	3 of 3	3 of 9
EGDSLFYYAAN	GKNHRPS	SSRDSSGFQVF	450 nM	3 of 3	3 of 9
EFDILRYYYAN	GDNNRPS	SSRDSSGFQVF	860 nM	3 of 3	3 of 9
EGDSLRYYYAN	GKNNRCS	RSRESSGFQVF	310 µM	1 of 3	2 of 9
EGDSLRYYRAN	GKNNRPS	SSFDSSLFQVF	710 nM	3 of 3	5 of 9
EGDSLRYYYAN	WKNNRPS	SSKDSSGFQVF	not detected	0 of 3	3 of 9
EGDSLRYYFAP	TKNNRPS	SSRDSSGFQVF	not detected	0 of 3	3 of 9
IGDSLQYYYAN	GKNNRPS	VSRDSSGFQVF	3.8 µM	3 of 3	4 of 9
EGDSLRYYYTN	WKPNRPS	SSRDSSGFQVF	13 µM	1 of 3	1 of 9
EGDSNRYYYAN	LKNNRPS	SCRDSSGFQVF	790 nM	3 of 3	1 of 9
EGDSLRYYYNN	GKNNRPS	SVRDSSGFQVF	4.5 µM	3 of 3	2 of 9
EGDSLMYYYAN	GKNLRPS	SSRDSSGFEVF	16 nM	3 of 3	3 of 9
EGDYLRYYYAN	GKNRRPS	SLRDSSGFQVF	22 µM	2 of 3	2 of 9
EGFSLRYYYAN	GKENRPS	SSTDSSGFQVF	1.7 µM	2 of 3	3 of 9
EGCSLTYYYAN	GKTNRPS	SSRDSSGFQVF	not detected	0 of 3	3 of 9
EGDSLRYYYDN	GKVNRPS	SSRDSSGFQVH	6.5 µM	1 of 3	2 of 9
EGDSHRYYDAN	GKNNRPS	SSRDSSGYQVF	300 nM	3 of 3	5 of 9
HGDSLRIYYAN	GKNNRPS	SSRDSSCFQVF	1.5 µM	2 of 3	3 of 9
WGDSLRYYYAN	GGNNYPS	SSRDSSGFQVF	2.7 µM	3 of 3	4 of 9
EMDSLRYYYAN	GKANRPS	SSRDSSGFQLF	not detected	0 of 3	2 of 9
EGDSLRYYYAN	MKNNRPS	SSLDSSGYQVF	15 µM	2 of 3	2 of 9
EGDSLRPYYFN	CKNNRPS	SSRDSSGFQVF	11 µM	1 of 3	4 of 9
ELDSLRAYYAN	GKNNCPS	SSRDSSGFQVF	22 µM	2 of 3	4 of 9
EGDSLRYDYAM	GKNNRPS	ISRDSSGFQVF	5.0 µM	2 of 3	2 of 9
EGDSERYYYAN	GKNNRPS	SSRDSSNFQVV	650 µM	1 of 3	2 of 9
EGDSLRYYYAN	GKNNPPR	SSRDSSGFQVY	4.7 µM	3 of 3	1 of 9
EGDSLGYYYAN	GKNNRPN	STRDSSGFQVF	120 nM	3 of 3	4 of 9
EKDILRYYYAN	GKNNRPS	SSRDSSVFQVF	7.0 µM	2 of 3	2 of 9
EGDSLRYYYAN	GKNNRYS	SHRDSSGTQVF	41 µM	2 of 3	2 of 9
EGDSLRYYYAN	MKNNDPS	SSRDSSGFQVF	23 µM	1 of 3	1 of 9
EMMSLRYYYAN	GKNIRPS	SSRDSSGFQVF	3.9 µM	2 of 3	3 of 9
EGDSLRYYYAN	GVNNRPS	SSRDSSTFQSF	460 nM	2 of 3	4 of 9

Parent in this assay: reference entry 200 nM, copy in this library 180 nM. Nonspecific signal, from three strains lacking the peptide, appeared in 28% of pairings of library AAYL52, centred on 8.2 µM (5% of these signals below 800 nM); values are not corrected for it. For each scFv, signals with the empty controls are counted beside the result.